Measurements taken from PubChem BioAssay AID1823 (The Scripps Research Institute Molecular Screening Center, 2009).
The entries are a selection whose mix differs from that of the whole data set. The source made the active and inactive calls. No stated cut-off is given here; in the data, active means inhibition above about 75%; inactive means the rest.

Assay: quenches luminol chemiluminescence in Nox1 counter-screen (AID 1823)
Conditions: HRP/luminol/H2O2 chemiluminescence counterscreen; at 6.7 µM; hits give high values

Row | SMILES | inhibition
1 | Cc1ccccc1NC1CC(C)(C)NC(C)(C)C1 | inactive: -3.61%
